These are literature values, as cited in patent publication US20180016259A1, “QUINAZOLINE INHIBITORS OF ACTIVATING MUTANT FORMS OF EPIDERMAL GROWTH FACTOR RECEPTOR” (AstraZeneca AB, priority 2013, published 2018).

Some results are limits rather than exact numbers.

The conditions of this data set: literature reports; cited from earlier work.

For `C#Cc1cccc(Nc2ncnc3cc(OCCOC)c(OCCOC)cc23)c1` [erlotinib], the “adverse effects, such as skin rash and diarrhoea, share of NSCLC patients treated” value is given as above 60%.
